Article PMC9492542, “Brain-restricted mTOR inhibition with binary pharmacology” (Nature, 2022)

Sequences of proteins named here, by UniProt entry; tags and fusion partners are left off. A change or cut given only in a name is not applied to a line headed by its entry.
UniProt Q86Z02: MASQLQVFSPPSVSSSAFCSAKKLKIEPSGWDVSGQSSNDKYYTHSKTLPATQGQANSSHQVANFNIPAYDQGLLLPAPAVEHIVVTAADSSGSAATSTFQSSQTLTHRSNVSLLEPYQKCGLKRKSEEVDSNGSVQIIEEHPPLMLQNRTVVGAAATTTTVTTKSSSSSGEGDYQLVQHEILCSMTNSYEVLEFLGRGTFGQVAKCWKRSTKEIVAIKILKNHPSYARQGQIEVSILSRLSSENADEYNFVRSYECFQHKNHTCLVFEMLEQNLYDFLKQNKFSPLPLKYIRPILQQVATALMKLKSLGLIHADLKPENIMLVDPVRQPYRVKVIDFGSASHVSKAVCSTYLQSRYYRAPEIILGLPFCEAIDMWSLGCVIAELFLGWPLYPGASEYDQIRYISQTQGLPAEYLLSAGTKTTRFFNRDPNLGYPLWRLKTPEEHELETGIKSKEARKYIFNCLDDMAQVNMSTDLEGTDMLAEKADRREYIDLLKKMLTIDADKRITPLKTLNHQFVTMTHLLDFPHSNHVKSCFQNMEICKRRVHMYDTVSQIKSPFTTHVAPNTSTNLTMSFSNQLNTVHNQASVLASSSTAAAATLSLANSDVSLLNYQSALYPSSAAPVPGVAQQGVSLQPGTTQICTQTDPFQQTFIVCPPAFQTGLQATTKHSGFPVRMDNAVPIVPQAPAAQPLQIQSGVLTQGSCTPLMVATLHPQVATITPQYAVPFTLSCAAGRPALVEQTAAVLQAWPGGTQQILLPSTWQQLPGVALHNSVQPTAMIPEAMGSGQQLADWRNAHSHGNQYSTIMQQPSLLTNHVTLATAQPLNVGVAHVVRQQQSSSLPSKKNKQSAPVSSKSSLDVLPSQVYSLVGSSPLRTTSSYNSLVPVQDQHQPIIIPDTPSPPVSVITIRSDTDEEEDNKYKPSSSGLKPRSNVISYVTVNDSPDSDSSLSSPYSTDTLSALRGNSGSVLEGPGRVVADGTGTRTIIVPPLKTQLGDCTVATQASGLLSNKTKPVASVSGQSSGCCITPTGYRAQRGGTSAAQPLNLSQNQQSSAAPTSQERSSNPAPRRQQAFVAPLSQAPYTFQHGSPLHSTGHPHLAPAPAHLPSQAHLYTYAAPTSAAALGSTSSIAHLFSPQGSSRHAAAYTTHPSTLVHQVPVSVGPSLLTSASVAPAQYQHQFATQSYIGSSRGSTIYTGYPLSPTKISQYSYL

What was measured:
human PBMCs = assay: Proliferation of anti-CD3/anti-CD28 stimulated PBMCs (120 h); type: cell-based; set-up: unit not given here; conditions: 0.137174 nM Rapamycin, +10 μM RapaBlock
476 purified kinases [1] = target: 476 purified kinases (Homo sapiens, UniProt Q86Z02); conditions: ZLYTE; 10 nM + 10 µM FKBP12
476 purified kinases [2] = target: T1, 476 purified kinases (Homo sapiens, UniProt P29320); conditions: 10 nM compound + 10 µM FKBP12
T1 sequence (P29320 21-983): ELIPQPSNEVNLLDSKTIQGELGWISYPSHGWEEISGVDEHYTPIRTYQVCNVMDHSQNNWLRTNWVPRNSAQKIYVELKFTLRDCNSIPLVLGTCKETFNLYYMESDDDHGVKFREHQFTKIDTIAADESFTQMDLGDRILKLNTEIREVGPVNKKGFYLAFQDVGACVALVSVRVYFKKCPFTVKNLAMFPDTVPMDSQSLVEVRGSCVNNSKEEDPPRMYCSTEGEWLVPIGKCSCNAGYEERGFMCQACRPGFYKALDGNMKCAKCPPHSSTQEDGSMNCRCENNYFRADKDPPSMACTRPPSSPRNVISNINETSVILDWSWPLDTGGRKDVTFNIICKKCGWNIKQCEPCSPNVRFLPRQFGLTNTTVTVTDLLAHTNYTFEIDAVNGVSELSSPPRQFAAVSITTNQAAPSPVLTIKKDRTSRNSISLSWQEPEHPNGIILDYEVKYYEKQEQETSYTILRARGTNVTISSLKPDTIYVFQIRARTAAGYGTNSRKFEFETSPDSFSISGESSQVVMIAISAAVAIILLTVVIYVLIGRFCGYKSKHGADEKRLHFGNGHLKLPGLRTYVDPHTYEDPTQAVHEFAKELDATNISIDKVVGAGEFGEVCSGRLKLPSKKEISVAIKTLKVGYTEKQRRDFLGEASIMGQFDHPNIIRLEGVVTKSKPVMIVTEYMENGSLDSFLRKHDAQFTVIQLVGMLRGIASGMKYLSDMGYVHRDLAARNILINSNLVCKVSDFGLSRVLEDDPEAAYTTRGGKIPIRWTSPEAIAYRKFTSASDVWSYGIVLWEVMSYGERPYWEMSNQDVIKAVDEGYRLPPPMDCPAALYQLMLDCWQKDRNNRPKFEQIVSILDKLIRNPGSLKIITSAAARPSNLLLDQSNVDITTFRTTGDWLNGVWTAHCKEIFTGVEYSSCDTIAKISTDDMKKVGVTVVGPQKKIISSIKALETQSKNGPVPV

Work on `CO[C@H]1C[C@@H]2CC[C@@H](C)[C@@](O)(O2)C(=O)C(=O)N2CCCC[C@H]2C(=O)O[C@H]([C@H](C)C[C@@H]2CC[C@@H](O)[C@H](OC)C2)CC(=O)[C@H](C)/C=C(\C)[C@@H](O)[C@@H](OC)C(=O)[C@H](C)C[C@H](C)/C=C/C=C/C=C/1C` [Rapamycin] yielded a PBMC cell proliferation (human PBMCs) of 109.6.

`Cc1nc(Nc2ncc(C(=O)Nc3c(C)cccc3Cl)s2)cc(N2CCN(CCO)CC2)n1` [Dasatinib] was tested, and the “HIPK1 (Myak) (kinase profiling)” value (476 purified kinases [1]) was 8 and the “EPHA3 (LanthaScreen Binding)” value (476 purified kinases [2]) was 102.
